Target: Vascular endothelial growth factor receptor (Homo sapiens, UniProt P17948+P35916+P35968)
Assay: Inhibitory activity against VEGF-stimulated proliferation in HUVEC
Format: functional

The chains behind the UniProt entries cited, without tags or fusion partners. Where a name states a change or a piece, a line headed by the entry shows the natural chain unless it says otherwise.
UniProt P17948: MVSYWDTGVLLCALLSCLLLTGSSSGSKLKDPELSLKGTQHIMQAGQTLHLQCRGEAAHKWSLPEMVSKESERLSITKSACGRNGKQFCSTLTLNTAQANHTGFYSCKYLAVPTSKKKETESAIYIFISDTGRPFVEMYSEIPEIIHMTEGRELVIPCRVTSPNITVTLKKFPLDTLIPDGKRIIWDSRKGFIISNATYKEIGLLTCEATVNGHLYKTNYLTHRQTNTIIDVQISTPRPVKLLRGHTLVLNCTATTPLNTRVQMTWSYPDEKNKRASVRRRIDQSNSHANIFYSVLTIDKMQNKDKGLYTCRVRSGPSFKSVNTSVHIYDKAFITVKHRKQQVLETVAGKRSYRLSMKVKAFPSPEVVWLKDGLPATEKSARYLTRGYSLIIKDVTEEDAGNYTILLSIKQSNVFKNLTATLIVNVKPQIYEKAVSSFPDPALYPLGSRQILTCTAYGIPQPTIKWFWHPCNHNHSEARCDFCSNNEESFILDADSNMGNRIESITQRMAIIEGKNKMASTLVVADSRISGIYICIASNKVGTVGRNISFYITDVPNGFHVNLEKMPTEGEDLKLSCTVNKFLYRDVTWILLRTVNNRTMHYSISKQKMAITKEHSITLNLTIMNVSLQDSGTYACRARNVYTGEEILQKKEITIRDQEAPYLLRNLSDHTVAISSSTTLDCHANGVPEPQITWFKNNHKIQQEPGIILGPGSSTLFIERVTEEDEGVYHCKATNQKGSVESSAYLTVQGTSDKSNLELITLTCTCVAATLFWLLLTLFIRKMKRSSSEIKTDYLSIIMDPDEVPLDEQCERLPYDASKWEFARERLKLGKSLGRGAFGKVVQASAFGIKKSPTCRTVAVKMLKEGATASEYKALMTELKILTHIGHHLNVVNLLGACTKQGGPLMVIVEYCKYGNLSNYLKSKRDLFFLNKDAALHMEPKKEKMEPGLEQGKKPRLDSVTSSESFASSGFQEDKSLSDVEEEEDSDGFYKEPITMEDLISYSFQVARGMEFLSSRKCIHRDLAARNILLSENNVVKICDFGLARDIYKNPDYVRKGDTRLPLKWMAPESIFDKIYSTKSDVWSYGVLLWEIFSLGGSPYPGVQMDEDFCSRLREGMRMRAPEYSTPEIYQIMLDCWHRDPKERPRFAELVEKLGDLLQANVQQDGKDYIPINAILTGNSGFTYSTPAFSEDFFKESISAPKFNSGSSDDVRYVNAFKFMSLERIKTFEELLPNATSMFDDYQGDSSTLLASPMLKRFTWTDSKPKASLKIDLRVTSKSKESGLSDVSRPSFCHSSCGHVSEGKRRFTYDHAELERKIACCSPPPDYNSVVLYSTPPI
UniProt P35916: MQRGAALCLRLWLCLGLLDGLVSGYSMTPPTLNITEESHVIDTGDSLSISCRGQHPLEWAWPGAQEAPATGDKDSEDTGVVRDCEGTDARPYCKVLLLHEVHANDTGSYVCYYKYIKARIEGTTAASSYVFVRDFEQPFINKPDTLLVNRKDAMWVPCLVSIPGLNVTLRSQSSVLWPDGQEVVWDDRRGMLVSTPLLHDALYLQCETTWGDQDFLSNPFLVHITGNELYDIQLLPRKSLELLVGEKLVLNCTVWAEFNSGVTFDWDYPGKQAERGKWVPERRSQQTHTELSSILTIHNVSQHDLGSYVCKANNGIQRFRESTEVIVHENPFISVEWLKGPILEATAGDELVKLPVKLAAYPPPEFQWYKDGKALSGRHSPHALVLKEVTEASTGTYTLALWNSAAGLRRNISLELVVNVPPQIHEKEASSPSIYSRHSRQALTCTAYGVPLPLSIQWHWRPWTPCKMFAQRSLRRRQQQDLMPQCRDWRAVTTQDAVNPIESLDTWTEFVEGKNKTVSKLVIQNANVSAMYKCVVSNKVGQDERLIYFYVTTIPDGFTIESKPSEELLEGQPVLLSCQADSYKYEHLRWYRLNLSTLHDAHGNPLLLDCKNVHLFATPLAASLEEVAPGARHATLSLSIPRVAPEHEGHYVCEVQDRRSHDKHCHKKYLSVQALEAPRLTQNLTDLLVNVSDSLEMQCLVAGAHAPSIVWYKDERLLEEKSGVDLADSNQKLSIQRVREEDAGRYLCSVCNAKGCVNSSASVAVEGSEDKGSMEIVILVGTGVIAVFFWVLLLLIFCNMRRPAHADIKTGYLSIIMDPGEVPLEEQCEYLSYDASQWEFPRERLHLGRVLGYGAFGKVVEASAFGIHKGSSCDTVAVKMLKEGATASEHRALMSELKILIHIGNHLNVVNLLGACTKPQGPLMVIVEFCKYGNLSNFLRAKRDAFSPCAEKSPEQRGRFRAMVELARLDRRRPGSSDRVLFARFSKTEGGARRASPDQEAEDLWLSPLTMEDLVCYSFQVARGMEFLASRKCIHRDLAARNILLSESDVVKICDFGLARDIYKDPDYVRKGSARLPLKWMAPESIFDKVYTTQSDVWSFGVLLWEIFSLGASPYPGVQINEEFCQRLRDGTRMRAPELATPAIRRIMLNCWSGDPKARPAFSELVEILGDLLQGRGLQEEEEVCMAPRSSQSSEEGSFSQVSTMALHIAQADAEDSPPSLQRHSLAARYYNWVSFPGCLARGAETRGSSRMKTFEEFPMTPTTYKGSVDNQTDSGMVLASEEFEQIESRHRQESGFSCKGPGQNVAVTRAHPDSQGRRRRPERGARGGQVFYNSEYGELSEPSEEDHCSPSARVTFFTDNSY
UniProt P35968: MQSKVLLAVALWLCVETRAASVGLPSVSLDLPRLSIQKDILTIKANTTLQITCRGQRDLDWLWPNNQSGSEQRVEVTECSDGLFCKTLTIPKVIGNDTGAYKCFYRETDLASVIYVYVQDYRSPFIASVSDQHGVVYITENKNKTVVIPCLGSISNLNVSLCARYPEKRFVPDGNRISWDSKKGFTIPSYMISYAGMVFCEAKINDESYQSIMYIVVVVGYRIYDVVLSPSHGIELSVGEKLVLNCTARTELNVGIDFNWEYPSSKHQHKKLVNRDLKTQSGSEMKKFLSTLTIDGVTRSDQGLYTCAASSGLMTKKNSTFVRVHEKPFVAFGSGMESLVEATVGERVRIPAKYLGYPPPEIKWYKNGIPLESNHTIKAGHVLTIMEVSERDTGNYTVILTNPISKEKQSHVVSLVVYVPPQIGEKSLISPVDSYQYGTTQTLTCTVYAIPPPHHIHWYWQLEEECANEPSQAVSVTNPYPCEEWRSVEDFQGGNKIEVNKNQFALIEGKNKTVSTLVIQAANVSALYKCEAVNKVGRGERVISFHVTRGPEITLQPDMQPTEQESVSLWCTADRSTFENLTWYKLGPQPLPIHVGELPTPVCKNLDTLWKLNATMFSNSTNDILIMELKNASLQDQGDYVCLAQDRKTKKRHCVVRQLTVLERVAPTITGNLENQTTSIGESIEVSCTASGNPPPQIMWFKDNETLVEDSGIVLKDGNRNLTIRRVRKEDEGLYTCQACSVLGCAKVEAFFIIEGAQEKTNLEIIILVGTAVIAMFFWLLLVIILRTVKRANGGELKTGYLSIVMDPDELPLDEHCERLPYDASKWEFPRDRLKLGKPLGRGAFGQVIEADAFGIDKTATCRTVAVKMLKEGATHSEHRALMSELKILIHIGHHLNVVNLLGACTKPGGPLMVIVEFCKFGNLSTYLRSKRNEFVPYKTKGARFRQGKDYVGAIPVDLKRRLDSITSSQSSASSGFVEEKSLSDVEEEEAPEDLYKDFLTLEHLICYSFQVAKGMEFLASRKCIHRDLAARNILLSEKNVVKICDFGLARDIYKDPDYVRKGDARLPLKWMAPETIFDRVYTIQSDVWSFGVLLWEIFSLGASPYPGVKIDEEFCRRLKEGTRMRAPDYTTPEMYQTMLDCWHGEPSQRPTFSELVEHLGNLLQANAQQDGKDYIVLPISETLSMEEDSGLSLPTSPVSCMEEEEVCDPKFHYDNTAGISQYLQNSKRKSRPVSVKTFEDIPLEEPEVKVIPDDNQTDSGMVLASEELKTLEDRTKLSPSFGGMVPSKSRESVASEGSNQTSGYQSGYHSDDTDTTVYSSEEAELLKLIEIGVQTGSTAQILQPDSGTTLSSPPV

IC50: 1 µM
SMILES: COc1cc2ncnc(Nc3ccc(Cl)cc3F)c2cc1OC

Reference: ChEMBL document CHEMBL1148542, “Synthesis of a novel biotin-tagged photoaffinity probe for VEGF receptor tyrosine kinases” (Bioorg Med Chem Lett, 2006)
